Experimental findings from patent publication US20220218641A1 (Concert Pharmaceuticals, Inc., priority 2019, published 2022) are described below.

The data set is classed as in vivo, male Sprague Dawley rats. Particulars: separate experiment.

On to `[2H][C@@](N)(CO)C(=O)O` [Compound 100, (2R)-2-amino-2-deutero-3-hydroxy-propanoic acid], for which the “PK parameters, Compound 100 compared with Compound 103” value is listed as “similar”.

With `[2H]C([2H])(O)[C@@]([2H])(N)C(=O)O` [Compound 103, (2R)-2-amino-2,3,3-tri-deutero-3-hydroxy-propanoic acid], the “PK parameters, Compound 100 compared with Compound 103” value is “similar”.
